For 21 compounds, Ratio Ki results are on record in ChEMBL document CHEMBL4359834, “(S)-4-(Difluoromethyl)-5-(4-(3-methylmorpholino)-6-morpholino-1,3,5-triazin-2-yl)pyridin-2-amine (PQR530), a Potent, Orally Bioavailable, and Brain-Penetrable Dual Inhibitor of Class I PI3K and mTOR Kinase” (J Med Chem, 2019).

For this test, the species on record is Homo sapiens. Nature of the test: Selectivity ratio, ratio of Ki for recombinant N-terminal His6-tagged PI3K p110alpha (unknown origin) to Ki for recombinant human C-terminal GST-tagged mTOR (1360 to 2549 amino acids) expressed in insect cells.
On to `C[C@@H]1COCCN1c1nc(-c2cnc(N)cc2C(F)(F)F)nc(N2CCOCC2)n1`, for which the Ratio Ki amounted to 0.49.
The figure for `C[C@H]1COCCN1c1nc(-c2cnc(N)cc2C(F)F)nc(N2CCOCC2)n1` is 1.5; for `C[C@H]1COCCN1c1nc(-c2cnc(N)nc2C(F)F)cc(N2CCOCC2)n1` it is 0.27.
The figure for `C[C@@H]1COCCN1c1nc(-c2cnc(N)cc2C(F)(F)F)nc(N2CCOC[C@H]2C)n1` is 4.01.
The figure for `C[C@@H]1COC[C@@H](C)N1c1nc(-c2cnc(N)cc2C(F)(F)F)nc(N2[C@H](C)COC[C@H]2C)n1` is 32.7; for `C[C@@H]1COC[C@@H](C)N1c1nc(-c2cnc(N)cc2C(F)(F)F)nc(N2CCOCC2)n1` it is 1.38; for `C[C@H]1COC[C@H](C)N1c1nc(-c2cnc(N)cc2C(F)(F)F)nc(N2[C@@H](C)COC[C@@H]2C)n1` it is 0.14.
For the compound `C[C@H]1COCCN1c1nc(-c2cnc(N)cc2C(F)(F)F)nc(N2CCOCC2)n1`, the Ratio Ki stood at 0.33.
The figure for `Nc1cc(C(F)(F)F)c(-c2nc(N3CC4CCC(C3)O4)nc(N3CC4CCC(C3)O4)n2)cn1` is 4.12.
The figure for `C[C@H]1COCCN1c1nc(-c2cnc(N)nc2C(F)(F)F)nc(N2CCOCC2)n1` is 0.11.
The figure for `C[C@H]1COCCN1c1cc(-c2cnc(N)cc2C(F)F)nc(N2CCOCC2)n1` is 0.32; for `C[C@H]1COCCN1c1nc(-c2cnc(N)nc2C(F)F)nc(N2CCOCC2)n1` it is 0.18.
With `Nc1cc(C(F)(F)F)c(-c2nc(N3CCOCC3)nc(N3CC4CCC(C3)O4)n2)cn1`, the Ratio Ki was found to be 0.65.
As to `C[C@@H]1COC[C@H](C)N1c1nc(-c2cnc(N)cc2C(F)(F)F)nc(N2CCOCC2)n1`, the Ratio Ki was 1.42.
The figure for `C[C@H]1COCCN1c1nc(-c2cnc(N)cc2C(F)F)cc(N2CCOCC2)n1` is 1.16; for `Nc1cc(C(F)(F)F)c(-c2nc(N3C4CCC3COC4)nc(N3C4CCC3COC4)n2)cn1` it is 60.5; for `C[C@H]1COCCN1c1nc(-c2cnc(N)cc2C(F)(F)F)nc(N2CCOC[C@@H]2C)n1` it is 0.05.
The figure for `C[C@H]1COC[C@H](C)N1c1nc(-c2cnc(N)cc2C(F)(F)F)nc(N2CCOCC2)n1` is 0.26; for `C[C@H]1COCCN1c1cc(-c2cnc(N)nc2C(F)F)nc(N2CCOCC2)n1` it is 0.01.
Regarding `C[C@@H]1COC[C@H](C)N1c1nc(-c2cnc(N)cc2C(F)(F)F)nc(N2[C@H](C)COC[C@@H]2C)n1`, the Ratio Ki was determined as 0.79.
The figure for `Nc1cc(C(F)(F)F)c(-c2nc(N3CCOCC3)nc(N3C4CCC3COC4)n2)cn1` is 0.46.
